Results on one compound are retold here after article PMC5681654, “Dual protein kinase and nucleoside kinase modulators for rationally designed polypharmacology” (Nature Communications, 2017).

What all share (format): cell-based, human
Experiment [1] deals with LNCaP (prostate) cancer cell line. The experiment is described as follows: Cell proliferation assay (CellTiter-Blue), LNCaP. The note with it: gemcitabine 0−100 µM or masitinib 0−10 µM alone, 5 days. An excerpt: (§1) […]. […] The absorbance was read at 590 nm.
Experiment [2] has as its system HRT18 (colon) cancer cell line. The experiment can be described thus: Cell proliferation assay (CellTiter-Blue), HRT18.
Text: as §1

Experiment [3] concerns A549 (lung) cancer cell line. The experiment can be described thus: Cell proliferation assay (CellTiter-Blue), A549. Conditions: gemcitabine 0−100 µM or masitinib 0−10 µM alone, 5 days.
Text: as §1

SMILES strings stand for the structures.

As for `Cc1ccc(NC(=O)c2ccc(CN3CCN(C)CC3)cc2)cc1Nc1nc(-c2cccnc2)cs1` [masitinib], the “anti-proliferative effect, single agent” value is on record as “only a slight anti-proliferative activity” in experiment [1]; “only a slight anti-proliferative activity” in experiment [2] (gemcitabine 0−100 µM or masitinib 0−10 µM alone, 5 days); “only a slight anti-proliferative activity” in experiment [3]. In experiment [2] (masitinib 0, 2.5, 5, 10 µM, gemcitabine 0 to 100 µM), the “effect of adding masitinib to gemcitabine on viable cells” value is on record as “reduced the number of viable HRT18 cells”.
